Molecular target: T1, RPA70, endogenous, in HEK293T cell extracts
T1 construct: also called RPA1
Experiment: GST pull-down from HEK293T cell extracts, western blot [panel B]

B1: GST-fused GRB2 SH2 domain (other, UniProt P62993 60-152, looked up)
chain: WFFGKIPRAKAEEMLSKQRHDGAFLIRESESAPGDFSLSVKFGNDVQHFKVLRDGAGKYFLWVVKFNSLNELVDYHRSTSVSRNQQIFLRDIE
notes: domain: SH2; also called GST-SH domains; not shown: glutathione S-transferase (GST)
binding result: no binding

From patent US20230366033A1 (University of Texas, published 2023)
